The values that follow are results of earlier work, collected in publication PMC12305498.

For the series, the target named is RHOGDI (Homo sapiens) (UniProt P52565).

Turning to RAC (from UniProt P63000), the equilibrium dissociation constant (Kd) was 5.7 µM.
